The assay deals with ERK2 (Homo sapiens, UniProt P28482). The assay can be described thus: ERK2 inhibition, spectrophotometric coupled-enzyme assay. The class given is biochemical. The settings on record: activated ERK2 10 nM, 65 μM ATP, 30° C., pH 7.5; read-out: ERK2 Inhibitory Activity (Ki class).

Sequences of proteins named here, by UniProt entry; tags and fusion partners are left off.
UniProt P28482, whole entry: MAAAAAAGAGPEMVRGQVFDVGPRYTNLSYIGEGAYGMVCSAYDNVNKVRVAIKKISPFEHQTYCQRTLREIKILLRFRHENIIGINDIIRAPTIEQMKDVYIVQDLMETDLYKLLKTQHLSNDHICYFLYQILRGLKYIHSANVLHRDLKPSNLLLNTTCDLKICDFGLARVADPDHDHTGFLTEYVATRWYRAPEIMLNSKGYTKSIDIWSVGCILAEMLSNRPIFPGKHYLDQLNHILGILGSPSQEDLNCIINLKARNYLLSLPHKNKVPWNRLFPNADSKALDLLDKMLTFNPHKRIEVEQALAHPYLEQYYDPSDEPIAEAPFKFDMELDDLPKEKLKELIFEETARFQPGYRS

Consider one compound from patent publication US6593357B1, “Pyrazole compositions useful as inhibitors of ERK” (Vertex Pharmaceuticals Incorporated, priority 2000, dated 2003).

For `COc1cccc(-c2cn[nH]c2-c2c[nH]c(C(=O)NC(C)C)c2)c1` [II-28], the Ki is less than 1000 nM.
